The text below walks through data of patent publication US9512105B2, “1-substituted 4-arylpiperazine as kappa opioid receptor antagonists” (RESEARCH TRIANGLE INSTITUTE, priority 2011, dated 2016).

Amino acid sequences for entries named in this document (tags omitted). A change or cut given only in a name is not applied to a line headed by its entry.
UniProt P35372, whole entry: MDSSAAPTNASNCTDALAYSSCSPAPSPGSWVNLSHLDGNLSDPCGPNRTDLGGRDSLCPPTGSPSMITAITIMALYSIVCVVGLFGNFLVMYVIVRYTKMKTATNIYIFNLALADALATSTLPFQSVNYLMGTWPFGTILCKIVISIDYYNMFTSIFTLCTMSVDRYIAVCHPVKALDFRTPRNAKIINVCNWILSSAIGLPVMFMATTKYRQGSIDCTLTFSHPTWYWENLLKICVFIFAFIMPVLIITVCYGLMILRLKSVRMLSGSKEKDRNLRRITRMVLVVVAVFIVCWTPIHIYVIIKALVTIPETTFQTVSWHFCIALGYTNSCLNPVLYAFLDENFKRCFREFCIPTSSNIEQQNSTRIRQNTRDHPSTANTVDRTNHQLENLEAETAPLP
UniProt P41145: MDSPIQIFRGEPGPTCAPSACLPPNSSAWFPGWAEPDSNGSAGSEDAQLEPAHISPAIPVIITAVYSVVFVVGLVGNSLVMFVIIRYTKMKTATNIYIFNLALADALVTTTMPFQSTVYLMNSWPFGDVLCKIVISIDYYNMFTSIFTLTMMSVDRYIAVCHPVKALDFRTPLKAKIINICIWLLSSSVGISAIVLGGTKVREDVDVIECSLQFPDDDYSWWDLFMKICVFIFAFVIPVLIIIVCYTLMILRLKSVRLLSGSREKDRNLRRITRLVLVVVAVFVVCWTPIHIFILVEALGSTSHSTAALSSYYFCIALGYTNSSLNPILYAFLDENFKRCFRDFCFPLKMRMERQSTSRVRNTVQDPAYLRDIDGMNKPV

Holding throughout (assay type): biochemical
Test [1] has as its target T1, cloned human μ-opioid receptor (Homo sapiens, UniProt P35372).
T1 construct: expressed in transfected cells
As to the kind of experiment: Inhibition of DAMGO-stimulated [35S]GTPγS binding. The settings on record: antagonism of DAMGO-stimulated [35S]GTPγS binding, read-out: μ, DAMGO Ke. The text has this: (§1) Measures of opioid receptor antagonism and specificity were obtained by monitoring the ability of selected test compounds to inhibit stimulation of [^35S]GTPγS binding produced by the selective agonists (D-Ala^2,MePhe^4,Gly-ol^5)enkephalin (DAMGO, μ receptor) cyclo[D-Pen^2,D-Pen^5]enkephalin (DPDPE, δ) and 5,7,8-(−)-N-methyl-N-[7-(1-pyrrolidinyl)-1-oxaspiro[4,5]dec-8-yl]benzeneacetamide (U69,593, κ) in cloned human receptors.

The target of test [2] is T2, cloned human κ-opioid receptor (Homo sapiens, UniProt P41145).
T2 construct: expressed in transfected cells
As to the kind of experiment: Inhibition of U69,593-stimulated [35S]GTPγS binding. The settings on record: antagonism of U69,593-stimulated [35S]GTPγS binding, read-out: κ, U69,593 Ke.
From the text: as §1
(In general: GTPγS resists hydrolysis and so accumulates on activated G proteins.)

Test [3] addresses T3, cloned human δ-opioid receptor (Homo sapiens, UniProt P41143).
T3 construct: expressed in transfected cells
As to the kind of experiment: Inhibition of DPDPE-stimulated [35S]GTPγS binding. The settings on record: antagonism of DPDPE-stimulated [35S]GTPγS binding, read-out: δ, DPDPE Ke.
From the text: as §1

For the compound `Cc1ccc(O)c(Oc2ccc(C(=O)N[C@H](CN3CCN(c4cccc(O)c4)[C@@H](C)C3)C(C)C)cc2)c1.Cl.Cl` [Compound 6m, 4-(2-Hydroxy-5-methylphenoxy)-N-[(2S)-1-[(3S)-4-(3-hydroxyphenyl)-3-methylpiperazin-1-yl]-3-methylbutan-2-yl]benzamide Dihydrochloride], the Kb in test [1] worked out at 65 ± 18 nM; in test [2], 0.61 ± 0.27 nM; in test [3] it was 93 ± 27 nM.
